Data from ChEMBL document CHEMBL4152198, “The development of Bruton's tyrosine kinase (BTK) inhibitors from 2012 to 2017: A mini-review” (Eur J Med Chem, 2018).

Chains of the proteins cited; added tags and fusions are not shown. Lines headed by an entry give the natural chain unless they say otherwise; changes in a name come on top.
UniProt Q06187: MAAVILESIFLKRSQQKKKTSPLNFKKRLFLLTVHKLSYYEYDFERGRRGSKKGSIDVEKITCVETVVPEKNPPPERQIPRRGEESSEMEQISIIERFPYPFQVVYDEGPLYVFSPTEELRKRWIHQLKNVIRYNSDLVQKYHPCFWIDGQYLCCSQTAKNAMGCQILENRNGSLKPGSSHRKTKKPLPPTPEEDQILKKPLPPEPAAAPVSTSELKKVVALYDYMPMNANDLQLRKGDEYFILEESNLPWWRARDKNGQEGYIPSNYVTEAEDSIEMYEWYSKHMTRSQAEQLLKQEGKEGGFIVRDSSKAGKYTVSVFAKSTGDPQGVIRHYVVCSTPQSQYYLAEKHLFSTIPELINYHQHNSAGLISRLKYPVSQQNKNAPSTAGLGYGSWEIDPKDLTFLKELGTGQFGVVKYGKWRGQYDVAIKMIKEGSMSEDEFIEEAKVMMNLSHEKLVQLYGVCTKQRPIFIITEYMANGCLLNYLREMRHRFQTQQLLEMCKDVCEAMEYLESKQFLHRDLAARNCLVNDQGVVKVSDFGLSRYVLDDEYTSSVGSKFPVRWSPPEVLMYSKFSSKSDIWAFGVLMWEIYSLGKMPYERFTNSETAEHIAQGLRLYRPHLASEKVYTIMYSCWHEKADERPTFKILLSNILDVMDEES

Biological target: Tyrosine-protein kinase BTK (Homo sapiens, UniProt Q06187)
Assay: Inhibition of BTK (unknown origin)

C=CC(=O)Nc1cccc(Nc2nc(Nc3ccc(OCCOC)cc3)ncc2F)c1 [SPEBRUTINIB]
IC50: 0.7 nM
